Data published in US8816122B2 (The Board of Trustees of the Leland Stanford Junior …, priority 2009, dated 2014).

Biological target: rat brain PKC isoform mixture
Assay type: binding

Structure (SMILES): CC(=O)O[C@@]12C[C@@H](C)[C@@]3(O)[C@@H](C=C(CO)C[C@]4(O)C(=O)C(C)=C[C@@H]34)[C@@H]1C2(C)C [Prostratin, C12-deoxy-C13-acetyl phorbol, reference compound]
- Ki: 0.05 µM
